These are literature values, as cited in patent publication US8415285B2, “Composition for the prevention or removal of insoluble salt deposits” (Ecover Coordination Center N.V., priority 2010, dated 2013).

For this data set the following is noted: cited from earlier work.

As to sulfuric, the “Solubility calcium salt g/100 ml” value was 0.3 g/100 ml.
